pIC50: −log10 of the molar value.
Target: T1, PAR2 (Homo sapiens, UniProt P55085)
T1 sequence (P55085 26-397): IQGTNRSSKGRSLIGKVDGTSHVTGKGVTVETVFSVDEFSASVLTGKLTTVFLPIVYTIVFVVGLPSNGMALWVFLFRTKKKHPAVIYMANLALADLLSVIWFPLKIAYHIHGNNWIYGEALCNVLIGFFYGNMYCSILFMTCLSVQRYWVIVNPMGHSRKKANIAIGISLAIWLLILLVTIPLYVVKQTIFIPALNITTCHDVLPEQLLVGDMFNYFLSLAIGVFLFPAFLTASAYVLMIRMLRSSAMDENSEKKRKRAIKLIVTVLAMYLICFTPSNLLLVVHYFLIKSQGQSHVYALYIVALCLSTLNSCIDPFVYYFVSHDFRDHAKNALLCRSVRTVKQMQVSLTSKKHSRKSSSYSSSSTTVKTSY
Assay: PAR2 agonist inhibition (antagonism): intracellular Ca2+ release in HT29 cells
Assay type: cell-based
Design: endogenous in cells; host or cells: HT29 (human colorectal adenocarcinoma)
Settings: other ligands; inhibiting Ca2+ release in HT29 cells; 30 min pre-incubation, agonist at EC80
Experimental: Cells are seeded overnight in 96-well black walled, clear bottomed, plate at approximately 2×10^4 to 4×10^5 cells per well. […] The cells are then washed twice with HBSS and transferred to a Polarstar spectrofluorimeter (BMG, Durham N.C.).
The cells are prepared as outlined above then treated with the ‘putative’ antagonist 30 min prior to the addition of either trypsin or a synthetic agonist at a concentration equal to the agonists EC80.
The cells were then treated with 1 μM of the PAR2 agonist 2f-LIGRLO-NH2 (FIG. 2A, n=5) or 100 nM Trypsin (FIG. 2B, n=1). Each data point represents mean±SEM. Net changes in fluorescence were calculated as a percentage relative to the maximum response given 1 μM 2f-LIGRLO-NH2 or 100 nM Trypsin. Changes in fluorescence (% response) were plotted against logarithmic compound concentrations. The half maximal inhibitory concentration (IC50) values were derived from the dose response curve using a nonlinear regression curve in Graphpad Prism v5.

pIC50: 5.92
SMILES: CC[C@H](C)[C@@H](NC(=O)[C@H](CC1CCCCC1)NC(=O)c1cc(N)no1)C(=O)N1CCC2(C=Cc3ccccc32)CC1 [Compound 42, 5-(3-amino-isoxazoyl)-Cha-Ile-spiro[indene-1,4′-piperidine]]
